Assay results taken from paper PMC2193166 (The Journal of Experimental Medicine, 2000).

Tests used:
ALXR [1] = target: T1, ALXR (Homo sapiens, UniProt P25090); test: Chemotaxis of CHO cells expressing ALXR together with Gqo chimera; type: cell-based; conditions: not shown
T1 sequence (P25090 1-351): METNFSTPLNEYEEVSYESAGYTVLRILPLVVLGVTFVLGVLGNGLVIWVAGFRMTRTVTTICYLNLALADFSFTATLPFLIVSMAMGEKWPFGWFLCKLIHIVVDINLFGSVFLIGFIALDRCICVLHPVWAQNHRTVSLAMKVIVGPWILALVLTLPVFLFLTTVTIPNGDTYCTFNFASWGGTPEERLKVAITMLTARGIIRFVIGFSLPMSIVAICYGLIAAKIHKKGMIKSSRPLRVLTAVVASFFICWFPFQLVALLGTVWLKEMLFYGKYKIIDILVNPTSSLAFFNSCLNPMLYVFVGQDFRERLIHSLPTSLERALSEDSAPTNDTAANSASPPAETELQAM

ALXR [2] = target: T1, ALXR; conditions: higher pharmacological doses; cited from earlier work
ALXR [3] = target: T1, ALXR; conditions: cited from earlier work

chemotaxis of CHO-ALXR cells (in words) (ALXR [1]): did not stimulate chemotaxis
Substance: FMLP
doses at which ALXR responds to FMLP (ALXR [2]): 1 to 10 µM
displacement of ^3H-LXA4 binding (ALXR [3]; at levels <1 μM): did not show displacement
concentration needed to compete for ^3H-LXA4 binding with ALXR (ALXR [3]): 1 to 100 µM
